One substance from patent publication US7429670B2, “Synthesis of derivatives of ginkgolide C” (The Trustees of Columbia University in the City of New York, priority 2003, dated 2008) can be followed below.

This experiment deals with T1, human homomeric α1 GlyR (Homo sapiens, UniProt P23415).
T1 construct: expressed in transfected cells
T1 sequence (P23415 29-457): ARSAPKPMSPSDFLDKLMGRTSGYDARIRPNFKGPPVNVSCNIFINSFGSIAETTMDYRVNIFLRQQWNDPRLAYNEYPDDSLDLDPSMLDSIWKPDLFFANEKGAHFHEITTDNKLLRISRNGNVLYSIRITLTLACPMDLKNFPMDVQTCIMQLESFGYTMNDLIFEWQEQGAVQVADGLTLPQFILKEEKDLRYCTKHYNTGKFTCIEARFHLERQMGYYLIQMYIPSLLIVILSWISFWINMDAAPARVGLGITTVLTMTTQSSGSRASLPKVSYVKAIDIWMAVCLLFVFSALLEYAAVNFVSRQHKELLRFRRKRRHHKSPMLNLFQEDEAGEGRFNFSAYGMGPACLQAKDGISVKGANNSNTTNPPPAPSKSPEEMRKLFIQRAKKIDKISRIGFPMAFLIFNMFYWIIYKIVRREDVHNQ
Nature of the experiment: Functional glycine receptor assay (FLIPR Membrane Potential Assay). Type of experiment: cell-based. Conditions: concentration of 10 mM GC (3); 100 mM glycine (so in the source).

Take “Ginkgolide C [GC (3), reference compound]”: the “inhibition of the response induced by glycine” value came out at 97%.
